From ChEMBL document CHEMBL4330143, “Maximizing ER-α Degradation Maximizes Activity in a Tamoxifen-Resistant Breast Cancer Model: Identification of GDC-0927” (ACS Med Chem Lett, 2019)

Tested on: MCF7
Test: Antiproliferative activity against human MCF7 cells after 5 days by CellTiter-Glo assay
Settings: MCF7, 120 h

| Structure (SMILES) | IC50 [nM] |
| --- | --- |
| CC1=C(c2cccc(O)c2)C(c2ccc(OC[C@H](C)N3CC[C@@H](CF)C3)cc2)Oc2ccc(O)cc21 (some centres not stated) | 0.2 |
| CC1=C(c2cccc(O)c2)C(c2ccc(OCCN3CCC(CF)CC3)cc2)Oc2ccc(O)cc21 (configuration not stated) | 0.1 |
